Active and inactive are the calls of the source. The calls are words filed in the database; no cut-off is given here.
Tests used:
[1] = target: Alpha-1B adrenergic receptor (Rattus norvegicus) (UniProt P15823); assay: Agonist activity at alpha1B adrenoreceptor in Rattus norvegicus (rat) spleen
[2] = target: Alpha-1D adrenergic receptor (Rattus norvegicus, UniProt P23944); assay: Binding affinity to Rattus norvegicus (rat) alpha1D adrenoreceptor by radioligand displacement assay
[3] = target: Alpha-1B adrenergic receptor (Mesocricetus auratus, UniProt P18841); assay: Binding affinity to Cricetinae (hamster) alpha1B adrenoreceptor by radioligand displacement assay
[4] = target: Alpha-1B adrenergic receptor (Rattus norvegicus) (UniProt P15823); assay: Agonist activity at alpha1B adrenoreceptor in Rattus norvegicus (rat) spleen relative to phenylephrine

Amino acid sequences for entries named in this document (tags omitted).
UniProt P15823, whole entry: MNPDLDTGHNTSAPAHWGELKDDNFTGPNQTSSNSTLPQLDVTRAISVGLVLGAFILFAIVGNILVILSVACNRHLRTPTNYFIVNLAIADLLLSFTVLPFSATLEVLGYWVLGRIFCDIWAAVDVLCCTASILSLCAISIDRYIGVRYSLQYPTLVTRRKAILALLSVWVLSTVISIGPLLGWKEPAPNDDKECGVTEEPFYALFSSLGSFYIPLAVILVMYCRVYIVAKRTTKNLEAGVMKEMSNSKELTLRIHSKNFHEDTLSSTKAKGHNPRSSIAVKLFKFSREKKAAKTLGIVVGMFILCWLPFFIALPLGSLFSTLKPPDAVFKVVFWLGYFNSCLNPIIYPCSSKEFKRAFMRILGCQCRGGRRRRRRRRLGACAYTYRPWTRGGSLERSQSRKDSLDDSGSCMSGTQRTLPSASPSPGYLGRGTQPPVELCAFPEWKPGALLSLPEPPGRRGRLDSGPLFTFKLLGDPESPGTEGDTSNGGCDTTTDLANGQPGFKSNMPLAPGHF
UniProt P23944, whole entry: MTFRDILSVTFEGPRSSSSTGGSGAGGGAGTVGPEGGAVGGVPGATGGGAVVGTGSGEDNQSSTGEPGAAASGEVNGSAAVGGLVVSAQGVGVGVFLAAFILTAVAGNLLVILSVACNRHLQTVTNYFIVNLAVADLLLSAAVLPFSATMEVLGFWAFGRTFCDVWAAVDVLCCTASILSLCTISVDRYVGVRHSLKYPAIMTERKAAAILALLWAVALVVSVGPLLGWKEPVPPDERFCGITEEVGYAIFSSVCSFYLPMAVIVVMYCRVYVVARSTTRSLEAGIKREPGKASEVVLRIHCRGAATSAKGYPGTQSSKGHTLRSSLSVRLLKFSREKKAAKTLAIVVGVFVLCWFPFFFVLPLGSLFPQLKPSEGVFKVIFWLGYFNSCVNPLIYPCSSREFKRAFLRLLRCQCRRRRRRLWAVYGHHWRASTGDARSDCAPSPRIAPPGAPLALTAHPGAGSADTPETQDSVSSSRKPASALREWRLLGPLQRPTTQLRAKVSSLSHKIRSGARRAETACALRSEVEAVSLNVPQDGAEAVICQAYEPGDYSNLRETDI
UniProt P18841, whole entry: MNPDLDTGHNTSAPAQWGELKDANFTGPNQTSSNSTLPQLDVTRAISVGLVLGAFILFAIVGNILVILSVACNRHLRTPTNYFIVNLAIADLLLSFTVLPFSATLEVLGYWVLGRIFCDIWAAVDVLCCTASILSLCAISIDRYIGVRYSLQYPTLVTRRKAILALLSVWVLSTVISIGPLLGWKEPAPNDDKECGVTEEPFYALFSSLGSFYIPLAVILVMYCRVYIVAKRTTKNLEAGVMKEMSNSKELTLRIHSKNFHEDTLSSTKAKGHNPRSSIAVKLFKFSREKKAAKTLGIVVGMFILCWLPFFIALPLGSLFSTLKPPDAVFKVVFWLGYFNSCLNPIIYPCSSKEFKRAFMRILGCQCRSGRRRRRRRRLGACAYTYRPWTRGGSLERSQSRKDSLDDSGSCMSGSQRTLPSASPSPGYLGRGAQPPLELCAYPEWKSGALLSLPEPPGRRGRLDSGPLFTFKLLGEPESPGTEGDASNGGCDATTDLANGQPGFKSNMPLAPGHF

For `CCS(=O)(=O)Nc1cccc2c1CCC2c1c[nH]cn1` (centres undefined), the pEC50 [1] was “inactive”.
With `CC(=O)Nc1cccc2c1CCCC2c1c[nH]cn1` (centres undefined) the Ki [2] was > 10 µM and the Ki [3] was > 10 µM.
`CS(=O)(=O)Nc1cccc2c1CCCC2c1c[nH]cn1` (centres undefined) was tested, and the Efficacy [4] was 11%.

— ChEMBL document CHEMBL3046380, “In Vitro and In Vivo Characterization of Alpha-1A Selective Agonists and Their Utility for Stress Incontience” (Med Chem Res, 2004)
